According to patent US20020128256A1, “Methods for the treatment or prevention of inflammatory diseases characterized by abnormal cell proliferation” (priority 1997, published 2002):

Tests used:
[1] = system: NIH 3T3 mouse fibroblast cells; experiment: Mitogenic Assay (mitogen-induced cell proliferation); format: cell-based; settings: for IC50: NIH3T3, read-out: Mitogenic Assay IC50; for inhibition at 10 µM: NIH3T3, read-out: Mitogenic Assay Inhibition (%)
A549 = experiment: SRB antiproliferative assay, A549; format: cell-based; settings: Homo sapiens, A549, read-out: SRB IC50

SMILES | IC50 [1] [µM] | inhibition at 10 µM [1] [%] | IC50 (A549) [µM]
CC(=O)OC1CC(c2ccccc2)(c2ccccc2)c2ccccc21 (centres unmarked) [Compound 7, 1-Acetoxy-3,3-diphenylindane] | 3.4 | 98 | 
O=C1CC(c2ccccc2)(c2ccccc2)c2ccccc21 [Compound 2, 3,3-Diphenylindanone] | 1.3 | 99 | 
O/N=C1\CC(c2ccccc2)(c2ccccc2)c2ccccc21 [Compound 4, 1-N-Oxime-3,3-Diphenylindane] | 2.6 | 99 | 8.5
NC(=O)CC1C(=O)c2ccccc2C1(c1ccccc1)c1ccccc1 (centres unmarked) [Compound 12, 2-Acetamide-3,3-diphenylindanone] |  | 31 | 
N#CCC1C(=O)c2ccccc2C1(c1ccccc1)c1ccccc1 (centres unmarked) [Compound 9, 2-cyanomethyl-3,3-diphenylindanone] |  | 45 | 
O=C1c2ccccc2C(c2ccccc2)(c2ccccc2)C1CCCO (centres unmarked) [Compound 19, 3-(3′,3′-diphenyl-2′-indanyl-1′-one)propanol] | 1.5 | 99 | 
